For nine compounds, IC50 results are on record in US20200255478A1, “NOVEL COMPOUNDS ACTIVATING THE NRF2 PATHWAY” (Almirall, S.A., priority 2017, published 2020).

Amino acid sequences for entries named in this document (tags omitted).
UniProt Q14145, whole entry: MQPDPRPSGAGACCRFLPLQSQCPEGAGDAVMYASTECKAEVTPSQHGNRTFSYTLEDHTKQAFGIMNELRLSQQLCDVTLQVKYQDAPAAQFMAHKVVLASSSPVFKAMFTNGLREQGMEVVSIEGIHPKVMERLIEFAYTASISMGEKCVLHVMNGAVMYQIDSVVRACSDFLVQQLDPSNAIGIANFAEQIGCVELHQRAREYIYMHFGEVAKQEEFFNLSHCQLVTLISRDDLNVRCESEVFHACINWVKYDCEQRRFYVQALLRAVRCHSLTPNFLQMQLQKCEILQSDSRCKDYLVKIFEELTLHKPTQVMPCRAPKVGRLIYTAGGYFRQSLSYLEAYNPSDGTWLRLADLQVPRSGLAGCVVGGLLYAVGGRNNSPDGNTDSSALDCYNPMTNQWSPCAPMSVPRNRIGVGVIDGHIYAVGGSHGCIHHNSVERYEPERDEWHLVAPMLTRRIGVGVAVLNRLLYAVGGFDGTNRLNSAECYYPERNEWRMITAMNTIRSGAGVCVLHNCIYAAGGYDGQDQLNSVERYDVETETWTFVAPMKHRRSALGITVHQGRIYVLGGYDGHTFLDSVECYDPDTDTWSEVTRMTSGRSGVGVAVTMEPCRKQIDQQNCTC

Molecules are shown by their SMILES. Where two headings read alike, the source gives them in different places.

This experiment addresses Keap1-Maltose Binding Protein (MBP tag) (Homo sapiens, UniProt Q14145). Briefly: Nrf2-Keap1 HTRF (TR-FRET) binding assay: displacement of biotinylated ETGE peptide from Keap1-MBP. Background: TR-FRET usually uses a lanthanide donor and a delayed reading to cut background.

For orientation: IC50 means the concentration that gives 50% inhibition.

For the compound `CCCCCCCCCCCCCCCCCCCC(=O)N[C@H]1C[C@H]2C(=O)N[C@@H](CCC(N)=O)C(=O)N[C@H]3CSCc4ccccc4CSC[C@H](NC(=O)[C@H](CCC(=O)O)NC(=O)CNC(=O)[C@H]([C@@H](C)O)NC(=O)[C@H](CCC(=O)O)NC(=O)[C@@H]4CSCN4C(=O)[C@H](CC(=O)O)NC3=O)C(=O)N[C@@H](CC(C)C)C(=O)N3CCC[C@@H]3C(=O)N2C1` [Example 93, {[&^1Pro((4S)-NH-Arachidyl)-Gln-Cys(&^2)-Asp-Thz-Glu-Thr-Gly-Glu-Cys(&^3)-Leu-D-Pro&^1][&^2(1,2-phenylenediyl)dimethylene&^3]}], the IC50 was under 1 nM.

As for `CCCCCCCCCCCCCCCCCC(=O)N[C@H]1C[C@H]2C(=O)N[C@@H](CCC(N)=O)C(=O)N[C@H]3CSCc4cncc(c4)CSC[C@H](NC(=O)[C@H](CCC(=O)O)NC(=O)CNC(=O)[C@H]([C@@H](C)O)NC(=O)[C@H](CCC(=O)O)NC(=O)[C@@H]4CCCN4C(=O)[C@H](CC(=O)O)NC3=O)C(=O)N[C@@H](CC(C)C)C(=O)N3CCC[C@@H]3C(=O)N2C1` [Example 84, {[&^1Pro((4S)-NH-Stearyl)-Gln-Cys(&^2)-Asp-Pro-Glu-Thr-Gly-Glu-Cys(&^3)-Leu-D-Pro&^1][&^1(pyridine)3,5-diyldimethylene&^2]}], the half-inhibitory concentration (IC50) is 1 to 100 nM.

With `CCCCCCCCCCCCCCCCCC(=O)N[C@H]1C[C@H]2C(=O)N[C@@H](CCC(N)=O)C(=O)N[C@H]3CSCC4(COC4)CSC[C@H](NC(=O)[C@H](CCC(=O)O)NC(=O)CNC(=O)[C@H]([C@@H](C)O)NC(=O)[C@H](CCC(=O)O)NC(=O)[C@@H]4CCCN4C(=O)[C@H](CC(=O)O)NC3=O)C(=O)N[C@@H](CC(C)C)C(=O)N3CCC[C@@H]3C(=O)N2C1` [Example 79, {[&^1Pro((4S)-NH-Stearyl)-Gln-Cys(&^2)-Asp-Pro-Glu-Thr-Gly-Glu-Cys(&^3)-Leu-D-Pro&^1][&^2(3,3-oxetanediyl)dimethylene&^3]}], the 50% inhibitory concentration (IC50) was 1 to 100 nM. In the case of `CC(=O)N[C@H]1CSCc2ccccc2CSC[C@@H](C(=O)NCCC(=O)N[C@@H](CCCNC(=N)N)C(=O)N[C@@H](CCCCN)C(=O)N[C@@H](CCCCN)C(=O)N[C@@H](CCCNC(=N)N)C(=O)N[C@@H](CCCNC(=N)N)C(=O)N[C@@H](CCC(N)=O)C(=O)N[C@@H](CCCNC(=N)N)C(=O)N[C@@H](CCCNC(=N)N)C(=O)N[C@@H](CCCNC(=N)N)C(N)=O)NC(=O)[C@H](CCC(=O)O)NC(=O)CNC(=O)[C@H]([C@@H](C)O)NC(=O)[C@H](CCC(=O)O)NC(=O)[C@H](C)NC(=O)[C@H](CC(=O)O)NC1=O` [Example 21], the concentration for half-maximal inhibition (IC50) (HTRF (TR-FRET), displacement of ETGE-biotin from Keap1-MBP, values banded into grades, read-out: Binding (IC50) ETGE-Keap1) lay within 1 to 100 nM. `CCCCCCCCCCCCCCCCCC(=O)NCCC(=O)N[C@H]1CCCCNC(=O)[C@@H]2CCCN2C(=O)[C@H](CC(C)C)NC(=O)[C@@H]2CSCc3ccccc3CSC[C@H](NC(=O)[C@H](CCC(N)=O)NC1=O)C(=O)N[C@@H](CC(=O)O)C(=O)N1CCC[C@H]1C(=O)N[C@@H](CCC(=O)O)C(=O)N[C@@H]([C@@H](C)O)C(=O)NCC(=O)N[C@@H](CCC(=O)O)C(=O)N2` [Example 49, {[Stearyl-βAla-Lys(&^1)-Gln-Cys(&^2)-Asp-Pro-Glu-Thr-Gly-Glu-Cys(&^3)-Leu-Pro&^1][&^2(1,2-phenylenediyl)dimethylene&^3]}] registered an IC50 of 1 to 100 nM.

Compound `CCCCCCCCCCCCCCCCCC(=O)N[C@H]1C[C@H]2C(=O)N[C@@H](CCCCN)C(=O)N[C@H]3CSCc4ccccc4CSC[C@H](NC(=O)[C@H](CCC(=O)O)NC(=O)CNC(=O)[C@H]([C@@H](C)O)NC(=O)[C@H](CCC(=O)O)NC(=O)[C@@H]4CCCN4C(=O)[C@H](CC(=O)O)NC3=O)C(=O)N[C@@H](CC(C)C)C(=O)N3CCC[C@@H]3C(=O)N2C1` [Example 81, {[&^1Pro((4S)-NH-Stearyl)-Lys-Cys(&^2)-Asp-Pro-Glu-Thr-Gly-Glu-Cys(&^3)-Leu-D-Pro&^1][&^2(1,2-phenylenediy1)dimethylene&^3]}] yielded a 50% inhibitory concentration (IC50) of 1 to 100 nM. Consider `CCCCCCCCCCCCCCCCCC(=O)N[C@H]1C[C@H]2C(=O)N[C@@H](CCC(N)=O)C(=O)N[C@H]3CSCc4ccccc4CSC[C@H](NC(=O)[C@H](CCC(=O)O)NC(=O)CNC(=O)[C@H]([C@@H](C)O)NC(=O)[C@H](CCC(=O)O)NC(=O)[C@@H]4CCCN4C(=O)[C@H](CC(=O)O)NC3=O)C(=O)N[C@@H](CC(C)C)C(=O)N3CCC[C@@H]3C(=O)N2C1` [Example 50, {[&^1Pro((4S)-NH-Stearyl)-Gln-Cys(&^2)-Asp-Pro-Glu-Thr-Gly-Glu-Cys(&^3)-Leu-D-Pro&^1][&^2(1,2-phenylenediyl)dimethylene&^3]}], for which the half-maximal inhibitory concentration (IC50) was under 1 nM.

Take `CC(C)C[C@H](NC(=O)[C@H](CC(C)C)NC(=O)[C@@H]1CSCc2ccc3ccccc3c2-c2c(ccc3ccccc23)CSC[C@H](NC(=O)[C@H](CC(C)C)NC(=O)[C@@H](N)CC(C)C)C(=O)N[C@@H](CC(=O)O)C(=O)N2CCC[C@H]2C(=O)N[C@@H](CCC(=O)O)C(=O)N[C@@H]([C@@H](C)O)C(=O)NCC(=O)N[C@@H](CCC(=O)O)C(=O)N1)C(=O)NCCC(=O)N[C@@H](CCCNC(=N)N)C(=O)N[C@@H](CCCCN)C(=O)N[C@@H](CCCCN)C(=O)N[C@@H](CCCNC(=N)N)C(=O)N[C@@H](CCCNC(=N)N)C(=O)N[C@@H](CCC(N)=O)C(=O)N[C@@H](CCCNC(=N)N)C(=O)N[C@@H](CCCNC(=N)N)C(=O)N[C@@H](CCCNC(=N)N)C(N)=O` [Example 63]: the IC50 lay in the range of 1 to 100 nM.

The compound `CCCCCCCCCCCCCCCCCCCC(=O)N[C@H]1C[C@H]2C(=O)N[C@@H](CCC(N)=O)C(=O)N[C@H]3CSCC4(COC4)CSC[C@H](NC(=O)[C@H](CCC(=O)O)NC(=O)CNC(=O)[C@H]([C@@H](C)O)NC(=O)[C@H](CCC(=O)O)NC(=O)[C@@H]4CSCN4C(=O)[C@H](CC(=O)O)NC3=O)C(=O)N[C@@H](CC(C)C)C(=O)N3CCC[C@@H]3C(=O)N2C1` [Example 94, {[&^1Pro((4S)-NH-Arachidyl)-Gln-Cys(&^2)-Asp-Thz-Glu-Thr-Gly-Glu-Cys(&^3)-Leu-D-Pro&^1][&^2(3,3-oxetanediyl)dimethylene&^3]}] gave a half-maximal inhibitory concentration (IC50) of under 1 nM.
